Source: paper PMC4498294, “Tetrahydroisoquinolines affect the whole-cell phenotype of Mycobacterium tuberculosis by inhibiting the ATP-dependent MurE ligase” (Journal of Antimicrobial Chemotherapy, 2015)

System: MDCK cells carrying the MDR-1 gene
Assay: MDCK cell permeability assay
Assay type: in vitro ADME, canine
Conditions: MDCK MDR-1 monolayer, 10 μM, 30 min

Substance: Labetolol [reference compound]
- Papp A-B (apical to basolateral): 1.2 cm/sec, x10-6
- Papp B-A (basolateral to apical): 18.1 cm/sec, x10-6
